Literature values as cited in patent publication US6900203B2, “Optically active fluorinated vasoconstrictors, methods for making them, and anesthetic formulations comprising them” (Polium Technologies, Inc., priority 2002, dated 2005).

Protein sequences, listed by entry. Tags and fused reporters are not part of them.
UniProt P08588, whole entry: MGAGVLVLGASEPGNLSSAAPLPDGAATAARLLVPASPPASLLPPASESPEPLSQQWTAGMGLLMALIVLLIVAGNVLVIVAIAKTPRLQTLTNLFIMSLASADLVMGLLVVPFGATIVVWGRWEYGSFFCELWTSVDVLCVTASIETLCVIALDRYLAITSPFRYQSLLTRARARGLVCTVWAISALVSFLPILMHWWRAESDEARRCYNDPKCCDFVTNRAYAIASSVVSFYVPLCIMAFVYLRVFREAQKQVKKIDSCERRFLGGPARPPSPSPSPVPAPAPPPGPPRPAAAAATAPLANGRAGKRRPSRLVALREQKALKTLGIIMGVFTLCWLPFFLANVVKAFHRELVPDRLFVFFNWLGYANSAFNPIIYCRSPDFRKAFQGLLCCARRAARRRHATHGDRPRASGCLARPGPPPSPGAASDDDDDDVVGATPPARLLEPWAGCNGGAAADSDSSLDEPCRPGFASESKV

Target: β1 (Homo sapiens, UniProt P08588)
Conditions: read-out: Receptor affinity β1

| SMILES | Ki |
| --- | --- |
| CNC[C@@H](O)c1ccc(O)c(O)c1 [(S)-epinephrine] | 13 ± 2 µM |
| CNC[C@H](O)c1ccc(O)c(O)c1 [(R)-epinephrine] | 1.1 ± 0.3 µM |
